Assay results: paper PMC5439695 (PLoS ONE, 2017)

System: mitochondrial membrane potential (MMP)

Question: “1-Ethyl-3-methylimidazolium diethylphosphate” was tested. Which “disrupt MMP” value did it give?
Answer: 4.83 log10(M)*-1

Question: With Triethyltin bromide as the substance, how does the “disrupt MMP” value read?
Answer: 7.97 log10(M)*-1
